Among the data in EP1605976B1, “PHENYLCARBOXYL ACID AMIDES AND IK r CHANNEL INHIBITORS COMBINATION AND THE USE THEREOF FOR TREATING ATRIAL ARRHYTHMIA” (Sanofi-Aventis Deutschland GmbH, priority 2003, dated 2004) are IC50 values, retold here.

Protein sequences, listed by entry. Tags and fused reporters are not part of them.
UniProt P22460, whole entry: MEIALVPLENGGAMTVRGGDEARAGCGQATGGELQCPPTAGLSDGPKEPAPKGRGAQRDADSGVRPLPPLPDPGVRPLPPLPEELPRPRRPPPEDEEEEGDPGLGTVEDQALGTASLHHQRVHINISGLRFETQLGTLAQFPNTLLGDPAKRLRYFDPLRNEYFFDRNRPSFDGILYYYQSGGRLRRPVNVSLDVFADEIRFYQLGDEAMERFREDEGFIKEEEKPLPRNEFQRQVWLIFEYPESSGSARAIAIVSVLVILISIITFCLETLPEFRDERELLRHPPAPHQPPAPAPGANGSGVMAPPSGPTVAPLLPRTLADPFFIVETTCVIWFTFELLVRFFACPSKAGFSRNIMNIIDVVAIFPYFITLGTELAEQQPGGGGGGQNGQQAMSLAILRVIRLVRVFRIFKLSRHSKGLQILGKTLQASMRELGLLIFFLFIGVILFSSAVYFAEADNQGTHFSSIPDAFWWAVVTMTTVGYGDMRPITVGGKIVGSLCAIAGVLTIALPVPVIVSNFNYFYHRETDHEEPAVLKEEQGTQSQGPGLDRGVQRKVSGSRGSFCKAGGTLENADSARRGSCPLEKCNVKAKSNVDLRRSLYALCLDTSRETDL

What is called IC50 is the concentration that inhibits the measured activity by half.

This test deals with Kv1.5-Kanal (Homo sapiens, UniProt P22460). The conditions noted are these: human Kv1.5 in Xenopus oocytes, voltage steps to 0 mV and 40 mV, room temperature, Hill equation.

The compound `CCCCS(=O)(=O)Nc1ccccc1C(=O)N[C@H](CC)c1ccc(OC)nc1` [Beispiel 5, 2-(Butyl-1-sulfonylamino)-N-[1(R)-(6-methoxy-pyridin-3-yl)-propyl]-benzamid] gave an IC50 of 10 µM.
